Experimental data from patent US20250059274A1, “ANTI-FRa ANTIBODY, AND ANTIBODY-DRUG CONJUGATE AND USE THEREOF” (Bio-Thera Solutions, Ltd., priority 2021, published 2025).

By UniProt entry, the sequences of proteins in these tests, tags left out. Chains listed by the source or under a name are the forms on record and can include a tag or linker. Residues count along the entry.
UniProt P15328, with tags, fused parts or gaps: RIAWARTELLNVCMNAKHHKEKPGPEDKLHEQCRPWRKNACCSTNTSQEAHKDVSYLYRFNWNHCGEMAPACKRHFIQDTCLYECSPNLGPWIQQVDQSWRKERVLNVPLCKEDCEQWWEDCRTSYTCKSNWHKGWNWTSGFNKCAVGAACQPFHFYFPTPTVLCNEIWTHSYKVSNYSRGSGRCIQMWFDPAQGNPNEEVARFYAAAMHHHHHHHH
UniProt Q9JL02, 20-255: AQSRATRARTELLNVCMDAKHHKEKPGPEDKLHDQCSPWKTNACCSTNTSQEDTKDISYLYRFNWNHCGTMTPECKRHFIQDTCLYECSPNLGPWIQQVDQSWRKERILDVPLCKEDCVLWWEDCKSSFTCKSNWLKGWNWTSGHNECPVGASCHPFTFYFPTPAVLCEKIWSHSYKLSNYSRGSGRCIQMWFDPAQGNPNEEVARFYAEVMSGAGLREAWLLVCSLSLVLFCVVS
UniProt P35846, 25-232: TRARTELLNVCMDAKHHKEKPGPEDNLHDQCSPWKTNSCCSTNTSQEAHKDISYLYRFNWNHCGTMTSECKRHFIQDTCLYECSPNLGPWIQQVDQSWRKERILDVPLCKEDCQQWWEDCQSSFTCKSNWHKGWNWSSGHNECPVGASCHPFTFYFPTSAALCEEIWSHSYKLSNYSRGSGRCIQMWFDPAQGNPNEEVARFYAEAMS

Columns and labels:
FRα-His = target: T1, FRα-His (Homo sapiens, UniProt P15328); assay: Binding activity to FRα-His (Biacore); conditions: Biacore T200
T1 construct: 8xHis (C); made in house; host or cells: CHO-K1
Method: • HBS-EP+(10×): purchased from GE Healthcare, cat #BR-1006-69; • Glycine pH 1.5: purchased from GE Healthcare, cat #BR100354; • Running buffer: 50 mL of HBS-EP+(10×) was taken, and 450 mL of ultrapure water was added, and the resulting solution was well mixed. • Experimental instrument: Biacore: T200, purchased from GE Healthcare.
A Protein A chip was used for the assay.
Experiment results were analyzed using data analysis software Evaluation Software 3.1. The sensing signals acquired from the experimental flow channels for the samples were subjected to double subtraction (minus values of reference flow channels and blank control), and the fitting was performed using a “1:1” kinetic model to obtain the kinetic parameters (Ka: association rate; Kd: dissociation rate; KD: equilibrium dissociation constant) for the binding of each sample to the antigens.

Rat FOLR1 = Rat FOLR1 (Rattus norvegicus, UniProt Q9JL02); assay: ELISA species specificity of antibodies; format: binding; conditions: coated antigen rat FOLR1
Method: (§1) Each antigen was diluted to 1 μg/mL with PBS and added to a microplate (manufacturer: Corning, Catalog No.: 42592) in a volume of 100 μL per well, and the microplate was coated overnight in a refrigerator (2-8° C.). The coating solution was discarded, and 200 μL of a blocking solution (containing 5% skimmed milk powder, prepared from PBS) was added. The microplate was left to stand in an electric thermostatic incubator at 37° C. for 2 h. The blocking solution was discarded, and the microplate was washed 3 times with 0.05% PBST. Antibody dilutions at different concentrations (at an initial concentration of 6 μg/mL, 3-fold dilution, 8 concentration gradients in total, diluted with PBS) were added at 100 μL per well. The microplate was left to stand in the electric thermostatic incubator at 37° C. for 2 h. The antibody dilutions were discarded, and the microplate was washed 8 times with 0.05% PBST and patted dry. Anti-Human Kappa Light Chains (Bound and Free) peroxidase antibody Produced in goat (manufacturer: sigma, Catalog No.: A7164-1ML) diluted in a 1:10000 ratio was added at 100 µL/well. The microplate was left to stand in the electric thermostatic incubator at 37° C. for 1 h. […] The microplate was read on SpectraMax Plus Absorbance Microplate Reader with an absorption light wavelength of 450 nm.

Mouse FOLR1 = Mouse FOLR1 (Mus musculus, UniProt P35846); assay: ELISA species specificity of antibodies; format: binding; conditions: coated antigen mouse FOLR1
Method: as §1

B1: Antibody 1: humanized anti-FRα antibody, heavy chain SEQ ID NO: 19, light chain SEQ ID NO: 20 (antibody)
heavy: QVQLVQSGVEVKKPGASVKVSCKASGYSFTGYFMNWVRQAPGQGLEWIGRIHPYDGDTFYNQNFKDKATLTVDKSTTTAYMELKSLQFDDTAVYYCTRYDGSRAMDYWGQGTTVTVSSASTKGPSVFPLAPSSKSTSGGTAALGCLVKDYFPEPVTVSWNSGALTSGVHTFPAVLQSSGLYSLSSVVTVPSSSLGTQTYICNVNHKPSNTKVDKKV[letters of human IgG1 Fc omitted]
light: EIVLTQSPATLSLSPGERATLSCKASQSVSFAGTSLMHWYQQKPGQAPRLLIYRASNLEAGVPARFSGSGSKTDFTLTISSLEPEDFAVYYCQQSREYPYTFGGGTKVEIKRTVAAPSVFIFPPSDEQLKSGTASVVCLLNNFYPREAKVQWKVDNALQSGNSQESVTEQDSKDSTYSLSSTLTLSKADYEKHKVYACEVTHQGLSSPVTKSFNRGEC
For B1, the Ka (FRα-His; association rate) was 1.021e+06 M⁻¹ s⁻¹, the Kd (FRα-His; dissociation rate) was 0.0002927 s⁻¹ and the EC50 (Rat FOLR1) was “— (“—” indicates no binding)”. For the same molecule, the EC50 (Mouse FOLR1) was “— (“—” indicates no binding)”.
